# scFv variants of Ab-14 (heavy chain) against a SARS-CoV-2 spike peptide

Reference: Engelhart et al. 2022, doi:10.1038/s41597-022-01779-4. File: FLAb, binding data.

The target is the same throughout: PDVDLGDISGINAS, from the HR2 region of SARS-CoV-2 spike.

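The parent was found by panning a naive human phage display library on the peptide. The library (AAYL49) carries one to three amino acid substitutions per variant, with no insertions or deletions. The scFvs were displayed on barcoded MATa yeast, the peptide on MATalpha yeast. After mating in shaken culture at 30 °C for 16 h, diploids were selected and their barcode pairs sequenced. Read counts were normalised to the haploid input and turned into Kd by a linear fit to BCL2-family pairs of known affinity, for each replicate. Mating was done three times.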

Ab-14 is the parent antibody, in scFv form: VH, then a 15-residue (Gly4Ser)3 linker, then VL. The light chain is unchanged in all variants.
VH: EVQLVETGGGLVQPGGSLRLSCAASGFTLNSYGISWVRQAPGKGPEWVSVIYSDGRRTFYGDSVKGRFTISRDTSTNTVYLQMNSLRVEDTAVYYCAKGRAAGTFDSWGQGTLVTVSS
VL: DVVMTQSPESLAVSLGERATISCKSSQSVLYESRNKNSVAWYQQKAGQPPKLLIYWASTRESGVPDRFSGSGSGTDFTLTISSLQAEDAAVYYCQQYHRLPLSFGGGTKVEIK

The parent's heavy chain CDRs are GFTLNSYGIS, VIYSDGRRTFYGDSVK, GRAAGTFDS; each variant's own CDRs replace them letter for letter.
This list gathers variants with a substitution at L29 (VH, numbered from residue 1).
Values are log10 of the apparent Kd in nM; lower means stronger binding.
Where no diploid with the target was found in that replicate, the entry reads "nd": below detection, most likely a poor binder, though not proof of it.
Parent in this assay: reference entry 0.65, copy in this library 4.11 (one replicate of three).

For GFTENSQGIS / VIYSDGRRTFYGDSVK / WRAAGTFDS, the assay gave 4.25, 3.25, 5.15. With GFTGNAYGIS / VIYSDGRRTFYGDSVK / GRAAGVFDS the result was nd, nd, nd. The variant MFTNNSYGIY / VIYSDGRRTFYGDSVK / GRAAGTFDS showed nd, nd, nd. The variant GFTRNSMGLS / VIYSDGRRTFYGDSVK / GRAAGTFDS gave nd, 2.64, nd. The variant GFGGNSYGIS / VIYSDGRRTFYGDSVK / GRAAGLFDS gave nd, 3.31, nd. The variant GFTDNSYGIS / VWYSDGRRTFYGDSVK / GRAAGTNDS gave nd, nd, nd.

For GFTINSYGIS / VIYSDGRRTFYGTSNK / GRAAGTFDS, the assay gave 4.62, 4.87, 4.69. The variant GFTMNSYGIS / VIYSDGRRTFYGDAVK / QRAAGTFDS showed nd, nd, nd. For GFTKNSYGIS / VIYSDGRRTFYGDSVK / GRAAGTFDS, the assay gave 5.51, nd, nd. For GFTCESYGIS / VIYSDGRRTFYGDSVK / GRAAGTFDS, the assay gave 3.07, 3.66, nd. The variant GFTSESYGIS / VIQSDGRRTFYGDSVK / GRAAGTFDS showed 4.98, nd, 3.92. For GFTNNSYGIN / EIYSDGRRTFYGDSVK / GRAAGTFDS, the assay gave nd, nd, nd.

With GFTQNSYGIS / VIYSDGRRTFYHDSVK / GRAAGTFDS the result was nd, nd, nd. The variant GFTANSYGIS / VIYSDGRRTFYGDSVK / GRADGTFDS showed nd, nd, nd. For GFTQTSYGIS / VIYSDGRRTFPGDSVK / GRAAGTFDS, the assay gave nd, nd, 4.60. For GFTDNSYGIS / VIYSDGRRTFYGDSVK / GRTAGTFAS, the assay gave nd, 3.58, 4.37. The variant GFTANSYGIS / VIYSDGRRWFYGDSVK / GRAAGTFDS gave 3.06, nd, nd. For GFTQNSYMIS / VIYSDGRRTFYSDSVK / GRAAGTFDS, the assay gave nd, nd, nd.

The variant GFTRNSYGIS / VIDRDGRRTFYGDSVK / GRAAGTFDS showed nd, nd, nd. For GFTQNSYPIS / VIYSPGRRTFYGDSVK / GRAAGTFDS, the assay gave nd, nd, 4.52. The variant GFTDNSMGIS / VIYSDGRRTFYGDSVK / GRAAGQFDS gave 3.70, nd, nd. The variant GSTPNSYGIS / FIYSDGRRTFYGDSVK / GRAAGTFDS gave nd, nd, 4.97. With GFTFNSHGIS / VIYSDGRRTFYGDSVK / GRAAGTFDS the result was 3.34, nd, 2.57. For GFTWNSYGIS / VIYSDGRRTFEGDSVK / GRAAGTFKS, the assay gave nd, nd, nd.

The variant GFTIYSYGIS / VIYSDGRRTFYGDSVK / GRAAGTFNS gave nd, nd, nd. The variant GFTTNSYGIS / VIDSDPRRTFYGDSVK / GRAAGTFDS gave nd, nd, nd. The variant GFTAWSYGIS / VIYSMGRRTFYGDSVK / GRAAGTFDS showed nd, nd, nd. For LFTFNSYGIS / VIYSDGRRTFYGDSEK / GRAAGTFDS, the assay gave nd, nd, nd. The variant GFTTNSYGIS / VIYSDGRRTFYGDSVQ / GRAAGTADS gave 3.71, 4.32, nd. For GFTPNSYGIS / VIRSDGRRTFYGDSVK / GRAAGTFDS, the assay gave nd, nd, nd.

The variant GFTHNSYGIS / VIYSDGRRTFYGDSVK / GQQAGTFDS showed nd, 1.93, nd.

The 2 strongest on average among those seen in every replicate, once more:

{"CDR-H1": "GFTENSQGIS", "CDR-H2": "VIYSDGRRTFYGDSVK", "CDR-H3": "WRAAGTFDS", "replicates, log10 nM": "4.25, 3.25, 5.15"}
{"CDR-H1": "GFTINSYGIS", "CDR-H2": "VIYSDGRRTFYGTSNK", "CDR-H3": "GRAAGTFDS", "replicates, log10 nM": "4.62, 4.87, 4.69"}

As a blank, each scFv also met three strains without target: over library AAYL49, 15% of these pairings were detected, typically at 4.06 and seldom below 2.83.